The conditions of series [1]: rabbit, in vivo.
For series [2] the following is noted: rabbit, in vivo. This is another data set of the same source.
The conditions of series [3]: rabbit, in vivo. This is another data set of the same source.

Where only a bound is given, the exact number is not on record here.

For “Monosulphate heptadecylmaltose [M10-MONO]”, in the series with sheep red blood cells, the “Concentration giving 50% hemolysis” value was over 10000 µg/mL and the “hemolytic activity, fold lower than that of the POLYs” value is listed as 100 to >3000.
Regarding “galactose decanoic acid polysulphate ester [G10-POLY]”, in series [1], the “Body weight gain one week post immunization 1, mean” value turned out to be 17 g and the “Body weight gain two weeks post immunization 1, mean” value worked out at 38 g. Also, in series [2], the “Reactogenicity 1 week post immunization 2, GMS” value is 4.09; the “Reactogenicity 4 weeks post immunization 1, GMS” value was 0.75; the “Reactogenicity 4 weeks post immunization 1, antilog” value amounted to 6. Further, in series [3], the “Increase in body temperature one day post immunization 1, mean” value came out at 0.4 °C and the “Increase in body temperature two days post immunization 1, mean” value was 0.0 °C. Moreover, the “Concentration giving 50% hemolysis” value with sheep red blood cells came to 3 µg/mL.
“galactose tetradecanoic acid monosulphate ester [G10-MONO]”: in series [1], the “Body weight gain one week post immunization 1, mean” value is listed as 75 g and the “Body weight gain two weeks post immunization 1, mean” value is on record as 138 g. Also, in series [2], the “Reactogenicity 1 week post immunization 2, GMS” value came to 1.70; the “Reactogenicity 1 week post immunization 2, antilog” value stood at 51; the “Reactogenicity 4 weeks post immunization 1, GMS” value came to 0.21; the “Reactogenicity 4 weeks post immunization 1, antilog” value is 2. In series [2], the “Toxicity score of the site of injection, individual animal” value came to 0.10 and the “Toxicity score of the site of injection, individual animal, antilog” value came out at 1. In addition, in series [3], the “Increase in body temperature one day post immunization 1, mean” value was found to be 0.3 °C; the “Increase in body temperature two days post immunization 1, mean” value came out at 0.0 °C; the “increases in body temperature in comparison to the corresponding POLY counterpart” value is recorded as “lower increases”. Besides, in the series with sheep red blood cells, the “Concentration giving 50% hemolysis” value is over 10000 µg/mL and the “hemolytic activity, fold lower than that of the POLYs” value was 100 to >3000.
Take “maltose decanoic acid polysulphate ester [M10-POLY]”: in the series on sheep red blood cells, the “Concentration giving 50% hemolysis” value came out at 300 µg/mL.
With “maltotriose decanoic acid polysulphate ester [T10-POLY]”, in the series with sheep red blood cells, the “Concentration giving 50% hemolysis” value is 100 µg/mL.
“maltotriose nona-/decadecanoic acid monosulphate ester [T10-MONO]”: in the series on sheep red blood cells, the “Concentration giving 50% hemolysis” value was over 10000 µg/mL and the “hemolytic activity, fold lower than that of the POLYs” value was 100 to >3000.
